Data published in ChEMBL document CHEMBL1125897.

Species: Homo sapiens
Assay: Plasma half-life of drug (human metabolism)
Conditions: in vivo

CCC(=O)N(c1ccccc1)C1(C(=O)OC)CCN(CCC(=O)OC)CC1
T1/2: 37 min

Only a part of the results on these compounds is given; other tests are left out.
